From paper PMC9481557, “Enzymatic synthesis of benzylisoquinoline alkaloids using a parallel cascade strategy and tyrosinase variants” (Nature Communications, 2022)

System: N[C@@H](Cc1ccc(O)cc1)C(=O)O
Test: cells, lysate or membranes
Settings: apparent constant; N201S variant; copper enzyme; assay details in supplement

CnTYR (Candidatus Nitrosopumilus salarius BD31; N201S)
Km: 1890 µM
kcat: 182.9 s⁻¹
